Consider 16 substances from US11845808B2, “Peptide inhibitors of interleukin-23 receptor and their use to treat inflammatory diseases” (Janssen Biotech, Inc., priority 2020, dated 2023).

By UniProt entry, the sequences of proteins in these tests, tags left out. Residues count along the entry.
UniProt Q5VWK5, 24-629 limits assumed: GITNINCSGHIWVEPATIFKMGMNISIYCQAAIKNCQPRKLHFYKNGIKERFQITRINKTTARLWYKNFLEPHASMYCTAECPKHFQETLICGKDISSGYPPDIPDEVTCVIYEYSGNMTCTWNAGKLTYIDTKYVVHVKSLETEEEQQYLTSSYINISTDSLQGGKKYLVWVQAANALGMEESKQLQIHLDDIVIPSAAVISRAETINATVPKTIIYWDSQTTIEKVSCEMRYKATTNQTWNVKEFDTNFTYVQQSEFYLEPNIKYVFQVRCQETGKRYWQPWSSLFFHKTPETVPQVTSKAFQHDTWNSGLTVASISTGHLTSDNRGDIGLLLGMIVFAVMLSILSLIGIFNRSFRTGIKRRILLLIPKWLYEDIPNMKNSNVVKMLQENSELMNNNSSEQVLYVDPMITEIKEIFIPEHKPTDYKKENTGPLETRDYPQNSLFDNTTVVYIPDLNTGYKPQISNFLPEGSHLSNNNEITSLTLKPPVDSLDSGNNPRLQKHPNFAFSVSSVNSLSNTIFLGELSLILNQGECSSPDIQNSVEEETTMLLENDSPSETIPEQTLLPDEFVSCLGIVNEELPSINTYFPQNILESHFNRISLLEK

pIC50: −log10 of the molar value.

For data set [1], the target named is IL-23 stimulated phosphorylated STAT3 in PBMCs (Homo sapiens, UniProt Q5VWK5). Briefly: PBMC pSTAT3 assay. It counts as cell-based. Particulars: PBMCs from healthy donors, IL-23 5 ng/mL, 30 minutes.
The target of data set [2] is IL-23 induced IFNγ in natural killer (NK) cells (Homo sapiens, UniProt Q5VWK5). Briefly: NK cell based assay (IL-23/IL-18 induced IFNγ). The settings on record: IL-23 at EC50 to EC75 and IL-18 10 ng/mL, IFNγ in supernatant after 20 to 24 hours. The text has this: Example 3: NK Cell Based Assay
Data set [3] is described as follows: Stability in simulated intestinal fluid (SIF). The settings on record: 100 fold dilution of standard SIF concentration, 37° C., 20 μM. It counts as in vitro ADME. The method, boiled down:
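Peptides at 20 μM final were incubated at 37 °C in SIF (potassium phosphate with pancreatin, pH 6.8), and reactions were quenched with acetonitrile/1% formic acid at time points from 0 min to 24 h. Percent remaining relative to time 0 was determined by LC-MS/MS against an internal standard, and half-life came from a first-order decay fit.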

A short description of data set [4]: Stability in simulated gastric fluid (SGF). Particulars: pepsin, pH=2, 37° C., 20 μM peptide. Type of data set: in vitro ADME. The protocol:
Studies were carried out in simulated intestinal fluid (SIF) and simulated gastric fluid (SGF) to evaluate gastric stability of the peptide inhibitors of the present invention. In addition, studies were carried out to assess redox stability of the peptide inhibitors of the present invention.
SGF was prepared by adding 20 mg NaCl, 32 mg porcine pepsin (MP Biochemicals, catalog 02102599), and 700 HCl to 10 ml water (final pH=2). Aliquots of SGF (0.5 ml each) were pre-warmed at 37° C. To start the reaction, 1 μl of peptide stock solution (10 mM in DMSO) was added to 0.5 ml SGF and thoroughly mixed such that the final peptide concentration was 20 μM. The reactions were incubated at 37° C. with gentle shaking. At each time point (0, 15, 30, 60 min) 50 μl aliquots were removed and added to 200 ul acetonitrile containing 0.1% formic acid to quench the reaction. Samples are stored at 4° C. until the end of the experiment and centrifuged at 10,000 rpm for 5 minutes. Aliquots of the supernatant were removed, diluted 1:1 into distilled water containing internal standard, and analyzed by LCMS/MS. Percent remaining at each timepoint was calculated based on the peak area response ratio of test to compound to internal standard. Time 0 was set to 100%, and all later timepoints were calculated relative to time 0. Half-lives were calculated by fitting to a first-order exponential decay equation using GraphPad.

Data set [5] is described as follows: Stability in human fecal homogenate. Type of data set: in vitro ADME. The settings on record: 20% human fecal homogenate, 37° C., 20 μM.
Data set [6] can be described thus: Stability in cynomolgus monkey fecal homogenate. Type of data set: in vitro ADME. Particulars: 20% cynomolgus monkey fecal homogenate, 37° C., 20 μM.
Data set [7] in a line: Stability in rat plasma. It counts as in vitro ADME. Particulars: SD rat plasma, 37° C., 20 μM.

Regarding “Ac-[Pen]-N-T-[W(7-Ph)]-[Lys(Ac)]-[Pen]-Phe[4-(2-aminoethoxy)]-[2-Nal]-[a-MeLys]-[Lys(Ac)]-N-H-[Sarc]-NH2 [Peptide 51]”, the pIC50 in data set [1] is 9.06; in data set [2], 9.20. Also, in data set [3], the “SIF t½” value was greater than 24.0 h. The “SGF t½” value in data set [4] is greater than 24.0 h. Moreover, the “t½: Human Feces anaerobic” value in data set [5] was greater than 24.0 h. Moreover, the “t½: Monkey Feces anaerobic” value in data set [6] was 24.6 h. Moreover, in data set [7], the “t½: Rat Plasma EDTA” value was greater than 24.0 h.
On to “Ac-[Pen]-N-T-[W(7-Me)]-[Lys(Ac)]-[Pen]-Phe[4-(2-aminoethoxy)]-[2-Nal]-[a-MeLys]-[Lys(Ac)]-N-[(D)Leu]-[(D)NMeTyr]-NH2 [Peptide 47]”, for which the pIC50 in data set [1] is 8.72; in data set [2], 8.77. In data set [3], the “SIF t½” value was 20.1 h. Further, the “SGF t½” value in data set [4] is greater than 24.0 h. The “t½: Human Feces anaerobic” value in data set [5] is greater than 24.0 h. The “t½: Monkey Feces anaerobic” value in data set [6] was greater than 24.0 h. Further, the “t½: Rat Plasma EDTA” value in data set [7] is greater than 24.0 h.
“Ac-[Pen]-N-T-[W(7-Me)]-[Lys(Gly)]-[Pen]-Phe[4-(2-aminoethoxy)]-[2-Nal]-[THP]-E-N-H-[Sarc]-NH2 [Peptide 26]”: the pIC50 was 9.02 in data set [1] and 9.23 in data set [2]. In addition, the “SIF t½” value in data set [3] was 20.3 h. Also, the “SGF t½” value in data set [4] was greater than 24.0 h. For the same substance, in data set [5], the “t½: Human Feces anaerobic” value is 4.4 h. Further, in data set [6], the “t½: Monkey Feces anaerobic” value is 5.3 h. Further, in data set [7], the “t½: Rat Plasma EDTA” value is greater than 24.0 h.
Turning to “Ac-[Pen]-N-T-[W(7-Me)]-[Lys(bAla)]-[Pen]-Phe[4-(2-aminoethoxy)]-[2-Nal]-[THP]-E-N-H-[Sarc]-NH2 [Peptide 30]”, in data set [2], the pIC50 was 9.05. The “SIF t½” value in data set [3] is greater than 24.0 h. Further, the “SGF t½” value in data set [4] was greater than 24.0 h. Also, the “t½: Human Feces anaerobic” value in data set [5] turned out to be 7.7 h. For the same substance, the “t½: Monkey Feces anaerobic” value in data set [6] was 9.6 h. For the same substance, the “t½: Rat Plasma EDTA” value in data set [7] is greater than 24.0 h.
In the case of “Ac-[Pen]-N-T-[W(7-imidazopyridinyl)]-[Lys(Ac)]-[Pen]-Phe[4-(2-aminoethoxy)]-[2-Nal]-[THP]-E-N-[3Pal]-[Sarc]-NH2 [Peptide 144]”, in data set [3], the “SIF t½” value is greater than 24.0 h. Further, the “SGF t½” value in data set [4] was greater than 24.0 h. Further, the “t½: Human Feces anaerobic” value in data set [5] is greater than 24.0 h. Also, in data set [6], the “t½: Monkey Feces anaerobic” value was greater than 24.0 h. For the same substance, the “t½: Rat Plasma EDTA” value in data set [7] is greater than 24.0 h.
Regarding “Ac-[Pen]-N-T-[W(7-Me)]-[Lys(Ac)]-[Pen]-Phe[4-(2-aminoethoxy)]-[2-Nal]-[THP]-E-N-H-[Sarc]-NH2 [Peptide 22]”, the pIC50 in data set [1] is 9.29; in data set [2], 9.11. Also, in data set [3], the “SIF t½” value was greater than 24.0 h. Further, the “SGF t½” value in data set [4] was greater than 24.0 h. Moreover, the “t½: Human Feces anaerobic” value in data set [5] is greater than 24.0 h. In addition, in data set [6], the “t½: Monkey Feces anaerobic” value turned out to be 7.6 h. Further, the “t½: Rat Plasma EDTA” value in data set [7] was greater than 24.0 h.
As for “Ac-[Pen]-N-T-[W(7-Me)]-[Lys(Ac)]-[Pen]-Phe[4-(2-aminoethoxy)]-[3-Quin]-[a-MeLys]-[Lys(Ac)]-N-H-[Sarc]-NH2 [Peptide 5]”, the pIC50 is 8.59 in data set [1] and 9.11 in data set [2]. Moreover, in data set [3], the “SIF t½” value is greater than 24.0 h. In addition, the “SGF t½” value in data set [4] is greater than 24.0 h. Further, the “t½: Human Feces anaerobic” value in data set [5] is greater than 24.0 h. The “t½: Monkey Feces anaerobic” value in data set [6] was 15.8 h. Moreover, the “t½: Rat Plasma EDTA” value in data set [7] was greater than 24.0 h.
Consider “Ac-[Pen]-N-T-[W(7-Me)]-[Lys(Ac)]-[Pen]-Phe[4-(2-aminoethoxy)]-[2-Nal]-[THP]-E-N-H-P-NH2 [Peptide 66]”, for which, in data set [2], the pIC50 was 9.06. Moreover, the “SIF t½” value in data set [3] was 21.8 h. Moreover, in data set [4], the “SGF t½” value was greater than 24.0 h. For the same substance, the “t½: Human Feces anaerobic” value in data set [5] came to 4 h. Further, the “t½: Monkey Feces anaerobic” value in data set [6] turned out to be 4.7 h. Also, in data set [7], the “t½: Rat Plasma EDTA” value was greater than 24.0 h.
With “Ac-[Pen]-N-T-[W(7-pyrimidin-5-yl)]-[Lys(Ac)]-[Pen]-Phe[4-(2-aminoethoxy)]-[2-Nal]-[THP]-E-N-[3Pal]-[Sarc]-NH2 [Peptide 143]”, the “SIF t½” value in data set [3] was greater than 24.0 h. Further, the “SGF t½” value in data set [4] is greater than 24.0 h. Also, in data set [5], the “t½: Human Feces anaerobic” value was greater than 24.0 h. The “t½: Monkey Feces anaerobic” value in data set [6] was greater than 24.0 h. In data set [7], the “t½: Rat Plasma EDTA” value is greater than 24.0 h.
Regarding “Ac-[Pen]-N-T-[W(7-Me)]-[Lys(Ac)]-[Pen]-Phe[4-(2-aminoethoxy)]-[2-Nal]-[a-MeLys]-[Lys(Ac)]-N-[(D)Lys]-[(D)NMeTyr]-NH2 [Peptide 48]”, the pIC50 in data set [1] was 8.77; in data set [2], 9.00. In data set [3], the “SIF t½” value is 13.9 h. Also, the “SGF t½” value in data set [4] is greater than 24.0 h. Further, the “t½: Human Feces anaerobic” value in data set [5] is greater than 24.0 h. Moreover, the “t½: Monkey Feces anaerobic” value in data set [6] is greater than 24.0 h. In addition, the “t½: Rat Plasma EDTA” value in data set [7] was greater than 24.0 h.
For “Ac-[Pen]-N-T-[W(7-Me)]-[Lys(Ac)]-[Pen]-Phe[4-(2-aminoethoxy)]-[2-Nal]-[a-MeLys]-[Lys(Ac)]-N-[3Pal]-[Sarc]-NH2 [Peptide 103]”, the pIC50 in data set [2] was 10.56. In addition, the “SIF t½” value in data set [3] was greater than 24.0 h. For the same substance, the “SGF t½” value in data set [4] was greater than 24.0 h. The “t½: Human Feces anaerobic” value in data set [5] was greater than 24.0 h. For the same substance, in data set [6], the “t½: Monkey Feces anaerobic” value was greater than 24.0 h. Moreover, the “t½: Rat Plasma EDTA” value in data set [7] was greater than 24.0 h.
Regarding “Ac-[Pen]-N-T-[W(7-Me)]-[Lys(Ac)]-[Pen]-Phe[4-(2-aminoethoxy)]-[2-Nal]-[THP]-E-S-H-[Sarc]-NH2 [Peptide 54]”, the pIC50 in data set [2] is 8.79. Further, the “SIF t½” value in data set [3] was greater than 24.0 h. Further, the “SGF t½” value in data set [4] is greater than 24.0 h. Further, the “t½: Human Feces anaerobic” value in data set [5] came out at 9.4 h. For the same substance, the “t½: Monkey Feces anaerobic” value in data set [6] came to 14.5 h. In data set [7], the “t½: Rat Plasma EDTA” value was greater than 24.0 h.
As to “Ac-[Pen]-N-T-[W(7-Me)]-[Lys(Ac)]-[Pen]-Phe[4-(2-aminoethoxy)]-[2-Nal]-[a-MeLys]-[Lys(Ac)]-N-[3Pal]-NH2 [Peptide 80]”, the pIC50 in data set [2] is 10.29. Moreover, in data set [3], the “SIF t½” value is 0.1 h. Further, in data set [4], the “SGF t½” value was greater than 24.0 h. For the same substance, in data set [5], the “t½: Human Feces anaerobic” value was greater than 18.1 h. In addition, the “t½: Monkey Feces anaerobic” value in data set [6] was 14.8 h. Also, in data set [7], the “t½: Rat Plasma EDTA” value is greater than 24.0 h.
“Ac-[Pen]-S-T-[W(7-Ph)]-[Lys(Ac)]-[Pen]-Phe[4-(2-aminoethoxy)]-[2-Nal]-[THP]-E-N-H-[Sarc]-NH2 [Peptide 60]”: in data set [2], the pIC50 was 9.01. Further, the “SIF t½” value in data set [3] was greater than 24.0 h. In data set [4], the “SGF t½” value was greater than 24.0 h. In data set [5], the “t½: Human Feces anaerobic” value is greater than 24.0 h. The “t½: Monkey Feces anaerobic” value in data set [6] came to 21.4 h. Moreover, the “t½: Rat Plasma EDTA” value in data set [7] is greater than 24.0 h.
On to “Ac-[Pen]-N-T-[W(7-(2-Nal))]-[Lys(Ac)]-[Pen]-Phe[4-(2-aminoethoxy)]-[2-Nal]-[THP]-E-N-H-[Sarc]-NH2 [Peptide 67]”, for which the pIC50 in data set [2] was 9.11. The “SIF t½” value in data set [3] is greater than 24.0 h. Besides, the “SGF t½” value in data set [4] is greater than 24.0 h. Moreover, the “t½: Human Feces anaerobic” value in data set [5] was greater than 24.0 h. Moreover, the “t½: Monkey Feces anaerobic” value in data set [6] is greater than 24.0 h. Besides, the “t½: Rat Plasma EDTA” value in data set [7] is greater than 24.0 h.
Consider “Ac-[(D)Arg]-[Pen]-N-T-[W(7-Me)]-[Lys(Ac)]-[Pen]-Phe[4-(2-aminoethoxy)]-[2-Nal]-[THP]-E-N-[His_3Me]-NH2 [Peptide 146]”, for which, in data set [1], the pIC50 is 10.44. In data set [3], the “SIF t½” value was greater than 24.0 h. The “SGF t½” value in data set [4] is greater than 24.0 h. Moreover, the “t½: Human Feces anaerobic” value in data set [5] came out at 10.3 h. The “t½: Monkey Feces anaerobic” value in data set [6] turned out to be 14.2 h.

One may read the pIC50 as the negative decadic logarithm of the IC50, by convention in mol/L.
